Molecules are shown by their SMILES. This is a selection; strong and weak results do not stand in their true shares. Activity calls are given as the source filed them.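 How the source made its calls: active means maximum activity change below -70%; inconclusive means maximum activity change from -70% to -50%; inactive means maximum activity change above -50%.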
On the % scale 0 is the no-effect control and ±100 the full control effect.

For this experiment, the system named is Potassium voltage-gated channel subfamily H member 2, brain isoform KCNH2 3.1 (human). The experiment can be described thus: qHTS for Inhibitors of KCHN2 3.1: Mutant qHTS. To be noted: U2OS KCNH2 3.1, thallium flux FluxOr; hits give low values. The source says:
Many antipsychotic drugs that inhibit the neurotransmitter dopamine also bind to hERG1 channel which might help explain their antipsychotic activity but also produces cardiac side effects. The discovery of the novel KCNH2 3.1 isoform offers a potential new target for the development of antipsychotic drugs without cardiac side effects. This proposal will use a high throughput thallium flux assay developed for KCNH2 to screen compounds that modulate the activity of KCNH2 3.1. The wild type KCNH2 channel will also be screened in parallel to help define the selective modulators of this KCNH2 3.1 potassium channel. The resulting compounds will be validated in electrophysiology experiments. The availability of animal models will allow future testing in vivo for effects on memory and other aspects of animal physiology linked with psychosis. NIH Chemical Genomics Center [NCGC] NIH Molecular Libraries Probe Centers Network [MLPCN] MLPCN Grant: MH096539 Assay Submitter (PI): James Barrow, Johns Hopkins University, Lieber Institute for Brain Development
U2OS cells were resuspended in cell media containing 10% fetal calf serum (FCS) at a concentration of 2 million cells / mL. The solution was treated with the mutant (3.1) virus at 1.77 x 10^8 / mL and allowed to incubate at room temperature in the dark. After 4 hours of incubation, DMEM + 10% fetal bovine serum (FBS) was added to the cell solution. Three microliter was then dispensed into a 1536 tissue culture treated black assay plates which were incubated overnight at 37 C. Two microliter of loading buffer (HBSS + HEPES + Red40 dye quencher + FluxOr dye) was added and the assay plates were incubated for 45 min at room temperature in the dark. […] A stimulation buffer was added to the plate and the second kinetic read (2 min) was obtained. The rate constant was calculated from the kinetic reads and normalized to the positive and negative DMSO controls.
Consider `O=C(OCCN1CCN(CCOCc2ccccc2)CC1)C(O)(c1ccccc1)c1ccccc1`, for which the activity change is inactive: 9.05%.
Turning to `CP(=O)(Nc1ccccc1F)Oc1ccccc1` (stereo not given), the activity change is inactive: 4.99%.
As for `CC(C)c1ccc(OP(C)(=O)Nc2ccc(SC(F)(F)F)cc2)cc1` (stereo not given), the figure is inactive: -8.26%; as for `Cc1c([N+](=O)[O-])cc([N+](=O)[O-])c(Br)c1[N+](=O)[O-]`, inactive: -4.18%.
Next, `CCN(CC)CCCOC(=O)C(O)(c1ccccc1)C1CCCCC1` (stereo not given): inactive: -0.586%; `CP(=O)(Nc1ccccc1)Oc1ccc(F)cc1` (stereo not given): inactive: 8.4%; `CCCCCOc1ccc(NP(C)(=O)Oc2ccc(Cl)cc2Cl)cc1` (stereo not given): inactive: 2.44%.
As for `CCOC(=O)c1ccc(NP(C)(=O)Oc2ccc(F)cc2)cc1` (stereo not given), the figure is inactive: 13.5%; as for `COc1ccc(OP(C)(=O)Nc2ccc(SC(F)(F)F)cc2)cc1` (stereo not given), inactive: 7.27%; as for `O=[N+]([O-])c1ccc(OP2(=O)COCCO2)cc1` (stereo not given), inactive: 3.89%.
In the case of `Cc1cc(-c2cccc3ccccc23)c(C)cn1.O=[N+]([O-])c1cc([N+](=O)[O-])c(O)c([N+](=O)[O-])c1`, the activity change is inactive: 4.6%.
As for `Cc1c(C(c2ccc3c(c2)OCO3)c2c(C)n(C)n(-c3ccccc3)c2=O)c(=O)n(-c2ccccc2)n1C.O=[N+]([O-])c1cc([N+](=O)[O-])c(O)c([N+](=O)[O-])c1`, the figure is inactive: -17.6%; as for `COc1ccc(OP(C)(=O)Nc2cccc(Br)c2)cc1` (stereo not given), inactive: 9.68%.
Turning to `CN(C)CCOC(=O)C(O)(c1ccccc1)C1CCCCC1` (stereo not given), the activity change is inactive: 0.0391%.
On to `COc1ccc(NP(C)(=O)Oc2ccccc2OC)cc1` (stereo not given), for which the activity change is inactive: 5.33%.
In the case of `CP(=O)(Nc1ccc2c(c1)OCCO2)Oc1ccccc1` (stereo not given), the activity change was inactive: -2.06%.
Next, `Cc1ccccc1NP(C)(=O)Nc1ccccc1C`: inactive: 2.12%; `CP(=O)(Nc1ccc(SC(F)(F)F)cc1)Oc1ccc(F)cc1` (stereo not given): inactive: 3.11%; `CCOP(C)(=S)SCC(=O)NC(C)(CC)C(=O)O` (stereo not given): inactive: -7.18%.
Next, `CC(C)(C)c1ccc(OP(C)(=O)O)cc1`: inactive: 4.27%; `COc1ccccc1OP(C)(=O)Nc1ccccc1Br` (stereo not given): inactive: -3.62%.
As to `CP(=O)(Nc1ccc(Cl)cc1)Oc1ccc(F)cc1` (stereo not given), the activity change was inactive: -10.8%.
With `CN(C)C(=O)c1c([N+](=O)[O-])cc([N+](=O)[O-])cc1[N+](=O)[O-]`, the activity change is inactive: -8.1%.
Next, `COc1ccc(OP(C)(=O)Nc2ccc(Br)cc2)cc1` (stereo not given): inactive: 12.3%; `CCN(CC)CC(O)COC(=O)C(O)(c1ccccc1)C1CCCCC1` (stereo not given): inactive: 5.3%.
`O=C(OCCCN1CCCC1)C(O)(c1ccccc1)C1CCCCC1` (stereo not given): the activity change was inactive: 14.3%.
For `COc1ccccc1OP(C)(=O)Nc1c(C)n(C)n(-c2ccccc2)c1=O` (stereo not given), the activity change was inactive: -5.06%.
For `CCc1ccc(OP(C)(=O)Nc2cccnc2)cc1` (stereo not given), the activity change is inactive: 11.6%.
As for `CP(=O)(Oc1ccccc1)N1CCOC1=O` (stereo not given), the figure is inactive: 1.28%; as for `Nc1ccc2c(ccc3cccnc32)n1.O=[N+]([O-])c1cc([N+](=O)[O-])c(O)c([N+](=O)[O-])c1`, inactive: 21.2%; as for `CCOC(=O)c1ccc(NP(C)(=O)Oc2ccc(Cl)cc2)cc1` (stereo not given), inactive: -14.6%.
Next, `CP(=O)(OC12CC3CC(CC(C3)C1)C2)OC12CC3CC(CC(C3)C1)C2`: inactive: -21.1%.
For `CP(=O)(OCCOc1ccccc1)OCCOc1ccccc1`, the activity change was inactive: -3.6%.
Consider `CCCCCCCCCCCCCCCC1C[N+](C)(C)CCOP(C)(=O)O1` (stereo not given), for which the activity change was inactive: 5.65%.
As for `CP(=O)(Nc1ccc(Cl)cc1Cl)Oc1ccccc1` (stereo not given), the figure is inactive: 11.6%; as for `Cc1cc(C)cc(OP(C)(=O)Nc2cccc(C(F)(F)F)c2)c1` (stereo not given), inactive: -21.7%.
As for `COc1ccccc1OP(C)(=O)Nc1ccc(C)c(C)c1` (stereo not given), the figure is inactive: 1.62%; as for `COc1ccc(OP(C)(=O)Nc2ccccc2Br)cc1` (stereo not given), inactive: 8.73%.
As for `O=[N+]([O-])c1cc([N+](=O)[O-])c(Nc2ccccn2)c([N+](=O)[O-])c1`, the figure is inactive: -0.16%; as for `Cc1c(NP(C)(=O)Oc2ccc(C(C)C)cc2)c(=O)n(-c2ccccc2)n1C` (stereo not given), inactive: 4.46%; as for `COc1ccccc1OP(C)(=O)Nc1ccc(C)cc1C` (stereo not given), inactive: -12.1%.
`CP(=O)(Nc1ccccn1)Oc1ccccc1` (stereo not given): the activity change was inactive: -9.35%.
Next, `CCc1ccc(OP(C)(=O)O)cc1`: inactive: -5.89%; `COc1ccccc1OP(C)(=O)Nc1ccc(Br)cc1` (stereo not given): inactive: 7.33%; `COc1ccc(OP(C)(=O)Nc2ccccn2)cc1` (stereo not given): inactive: -5.7%.
Turning to `CN(C)CCOC(=O)C(O)(c1ccccc1)C1CCCC1` (stereo not given), the activity change was inactive: 2.54%.
As to `CCN(CC)CCCOC(=O)C(O)(c1ccccc1)c1ccccc1`, the activity change was inactive: -8.4%.
As for `Cc1ccc(NP(C)(=O)Oc2ccccc2)c(C)c1` (stereo not given), the figure is inactive: -1.15%; as for `COc1ccccc1OP(C)(=O)Nc1ccc(C)cc1` (stereo not given), inactive: -5.27%.
Next, `CCOC(=O)c1ccc(NP(C)(=O)Oc2ccccc2)cc1` (stereo not given): inactive: -0.384%; `Cc1cc(C)cc(OP(C)(N)=O)c1` (stereo not given): inactive: 7.73%.
Next, `COc1ccc(OP(C)(=O)Nc2cccc(F)c2)cc1` (stereo not given): inactive: 7.43%; `COc1ccccc1OP(C)(=O)Nc1cc(Cl)ccc1C` (stereo not given): inactive: -36.8%.
In the case of `O=[N+]([O-])c1cc([N+](=O)[O-])c(Nc2cccnc2)c([N+](=O)[O-])c1`, the activity change was inactive: 24.4%.
As for `Cc1cccc(C)c1OP(C)(N)=O` (stereo not given), the figure is inactive: 2.19%; as for `CC(C)(C)c1ccc(OP(C)(=O)Nc2ccc(SC(F)(F)F)cc2)cc1` (stereo not given), inactive: -6.64%.
In the case of `CP(=S)(Nn1cnnc1)Oc1ccccc1` (stereo not given), the activity change is inactive: 1.44%.
In the case of `CP(=O)(Nc1ccccc1Br)Oc1ccccc1` (stereo not given), the activity change is inactive: 2.74%.
Regarding `COc1ccccc1OP(C)(=O)Nc1ccccc1` (stereo not given), the activity change is inactive: -6.46%.
Next, `CCOC(=O)c1ccc(NP(C)(=O)Oc2ccc(OC)cc2)cc1` (stereo not given): inactive: 23.3%; `O=[N+]([O-])c1cc([N+](=O)[O-])c(O)c([N+](=O)[O-])c1.c1ccc(Oc2ccncc2)cc1`: inactive: 3.18%.
On to `CCOP(C)(=S)SCC(=O)NC(C)C(=O)O` (stereo not given), for which the activity change was inactive: 23.6%.
Next, `CP(=O)(Nc1ccccn1)Oc1ccc(Cl)cc1` (stereo not given): inactive: 5.68%.
Take `CP(=O)(Oc1ccccc1)OC(c1ccccc1)C(F)(F)F` (stereo not given): the activity change was inactive: 1.66%.
`Cc1cccc(C)c1OP(C)(=O)Nc1ccc(SC(F)(F)F)cc1` (stereo not given): the activity change was inactive: 1.08%.
As for `CP(=O)(Nc1ccc(SC(F)(F)F)cc1)Oc1ccc(Cl)cc1` (stereo not given), the figure is inactive: 12.5%; as for `Cc1cc(C)cc(OP(C)(=O)Nc2ccc(SC(F)(F)F)cc2)c1` (stereo not given), inactive: -0.023%; as for `CCc1ccc(OP(C)(=O)N2CCN(c3ccc([N+](=O)[O-])cc3)CC2)cc1` (stereo not given), inactive: -6.91%.
Next, `CP(=O)(NC(=O)Nc1ccccc1)Oc1ccccc1` (stereo not given): inactive: -8.71%; `O=[N+]([O-])c1cc([N+](=O)[O-])c(-c2cnn(-c3ccccc3)c2)c([N+](=O)[O-])c1`: inactive: -4.07%; `Cc1nc2ccc3ccccc3c2s1.O=[N+]([O-])c1cc([N+](=O)[O-])c(O)c([N+](=O)[O-])c1`: inactive: -13.6%.
Take `O=[N+]([O-])c1cc([N+](=O)[O-])c(-n2nnc3ccccc32)c([N+](=O)[O-])c1`: the activity change is inactive: -0.282%.
As for `COc1ccccc1OP(C)(=O)Nc1c(C)cccc1C` (stereo not given), the figure is inactive: 5.35%.
As for `CN1CCCCC1COC(=O)C1(O)c2ccccc2CCc2ccccc21` (stereo not given), the figure is inactive: -4.31%.
Turning to `CP(=O)(Nc1ccc(SC(F)(F)F)cc1)Oc1ccccc1` (stereo not given), the activity change was inactive: -4.65%.
As for `CCCOc1ccc(NP(C)(=O)Oc2ccc(Cl)cc2)cc1` (stereo not given), the figure is inactive: 9.24%.
Next, `O=[N+]([O-])c1cc([N+](=O)[O-])c(Nc2nnnn2CCO)c([N+](=O)[O-])c1`: inactive: 4.18%; `CC1=C2N=C(C=C3N=C(C(C)=C4[N-][C@@](C)([C@@H]5N=C1[C@](C)(CCC(=O)NC[C@@H](C)OP(=O)([O-])O[C@H]1[C@@H](O)[C@@H](n6cnc7cc(C)c(C)cc76)O[C@@H]1CO)[C@H]5CC(N)=O)[C@@](C)(CC(N)=O)[C@@H]4CCC(N)=O)[C@@](C)(CC(N)=O)[C@@H]3CCC(N)=O)C(C)(C)[C@@H]2CCC(N)=O.[C-]#N.[Co+3]`: inactive: -6.07%.
Next, `CC1=NCCc2c1[nH]c1ccccc21.O=[N+]([O-])c1cc([N+](=O)[O-])c(O)c([N+](=O)[O-])c1`: inactive: 4.09%.
Turning to `Cc1ccc(C)c(NP(C)(=O)Oc2ccccc2)c1` (stereo not given), the activity change is inactive: 9.64%.
In the case of `CP(=O)(Nc1cccc(Br)c1)Oc1ccccc1` (stereo not given), the activity change was inactive: 6.15%.
Next, `Cc1cc(C)cc(OP(C)(=O)Nc2ccccn2)c1` (stereo not given): inactive: 20.1%.
For `COc1ccccc1OP(C)(=O)Nc1cccc(Br)c1` (stereo not given), the activity change is inactive: -14.9%.
In the case of `CCOC(=O)c1ccc(NP(C)(=O)Oc2cc(C)cc(C)c2)cc1` (stereo not given), the activity change is inactive: -20.5%.
On to `Cc1cc(C)cc(OP(C)(=O)Nc2ccc(C)cc2C)c1` (stereo not given), for which the activity change was inactive: -6.53%.
